In this test the test system is human melanoma (C32, G361 and STMl1la) and nonmelanoma derived cell lines (Caki-2 and CHO). Kind of test: Growth inhibition (cytotoxicity), Sulpforhodamine B (SRB) assay. Format: cell-based. The note with it: read-out: IC50 (concentration necessary to inhibit 50% of growth); all cell lines; SRB assay after four hours exposure. (The SRB assay estimates cell density from bound dye.)

This note sets out measurements from patent US6573284B1, “Method of treating melanoma” (priority 1996, dated 2003).

Molecules are shown by their SMILES.

Take `Oc1ccc(N(CCCl)CCCl)cc1`: the IC50 fell in the range of 1000 to 2000 nM.
